This assay deals with Adenosine receptor A2a (Bos taurus). The conditions noted are these: Striatum, Membrane.

Regarding `Cc1cc(O)c2ccc(N)nc2n1`, the 135 was more than 10 µM.
